# System: streptozotocin-induced diabetic model
# Test: Test Example 3: sucrose loading in streptozotocin-induced diabetic model, plasma glucose (GLU)
# Format: in vivo, rat
# Conditions: STZ rats; sucrose loading 2.5 g/kg; metformin 50 mg/kg, voglibose 0.2 mg/kg, fenofibrate 50 mg/kg
# Description: Effect of combination use of fenofibrate and voglibose on a streptozotocin-induced diabetic model Streptozotocin (STZ) was dissolved in physiological saline, and the solution was intravenously administered to male Wister rats at a dose of 45 mg/kg in terms of STZ (STZ-administered day: Day 0). At 13 days after administration (Day 13), blood was collected from the rats, and plasma glucose (GLU) concentration was measured. […] From Day 14 (14 days after STZ administration), test articles shown in Table 1 were orally administered to the rats once a day for 9 days. At 23 days after STZ administration (Day 23), the GLU concentration was measured (previous value: GLU concentration before sucrose loading) (incidentally, the test articles were not administered on Day 23). […] Incidentally, each of the test articles was administered in the following dose a time: metformin (50 mg/kg), voglibose (0.2 mg/kg), and fenofibrate (50 mg/kg). Moreover, “N” represents the number of rats for determining the GLU concentration in the Table.
smiles,measurement,value
CC(C)OC(=O)C(C)(C)Oc1ccc(C(=O)c2ccc(Cl)cc2)cc1 [Fenofibrate],Rate of Change (GLU concentration after loading relative to before loading),112.2%

# Reference: patent publication US20070197602A1, “Combined pharmaceutical composition” (priority 2004, published 2007)
